{"source": "patent US20220127258A1", "about": "“AROMATIC RING OR HETEROAROMATIC RING COMPOUNDS, PREPARATION METHOD THEREFOR AND MEDICAL USE THEREOF” (The National Institutes of Pharmaceutical R&D Co., Ltd., priority 2019, published 2022)", "molecular_target": "T1, FXR (Homo sapiens, UniProt Q96RI1)", "T1 sequence (Q96RI1 262-486 limits assumed)": "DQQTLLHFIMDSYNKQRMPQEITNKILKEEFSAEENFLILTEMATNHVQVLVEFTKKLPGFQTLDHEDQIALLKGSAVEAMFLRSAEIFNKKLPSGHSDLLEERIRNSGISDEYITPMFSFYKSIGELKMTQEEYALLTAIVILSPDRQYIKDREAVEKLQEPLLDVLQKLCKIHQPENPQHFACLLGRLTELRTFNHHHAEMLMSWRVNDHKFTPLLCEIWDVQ", "assay": "FXR agonistic activity, luciferase assay", "assay_type": "cell-based", "details": "luc2P-GAL4-HEK293 cells transfected with pBIND-FXR, 24 hours", "procedure": "The FXR agonistic activity of the compound of the present invention was evaluated using the luciferase assay.\nThe experimental process comprises the follows. The luc2P-GAL4-HEK293 stably transfected cell line (the cell line was established by transfecting pGL4.35 plasmid with HEK293 cells which was then subjected to Hygromycin B screening. The cell contained 9×GAL4 UAS and firefly luciferase reporter gene. The ligand-activated LBD-GAL4 DBD fusion protein can enter the nucleus to bind to 9×GAL4 UAS and activate the transcription of the downstream luciferase reporter gene) was transferred to a 96-well plate with […] per well. pBIND-FXR (Which was constructed by inserting FXR-LBD into pFN26A-BIND hRluc-neo Flexi® vector. The plasmid was 7.5 kb in size, Amp resistant, contained FXR-LBD, and can express FXR-LBD and GAL4 DBD fusion proteins) was transfected using X-tremeGENE HP transfection reagent. The ratio of plasmid to transfection reagent was 1 μg: 2 μl. […] All the liquid in the plate was transferred to a 96-well microtiter plate, and the firefly luciferin value was measured with a multi-function plate reader (manufacturer: Bio Tek (USA); model: Synergy4). […] The plate was incubated at room temperature for 10 minutes, and the renilla luciferin value was measured. The measurement order of renilla fluorescence should be the same as that of firefly fluorescence. […]", "data": [{"substance": "2-chloro-4-(5-((1R,3r,5S)-3-((5-cyclopropyl-3-(2,6-dichlorophenyl)isoxazol-4-yl)methoxy)-8-azabicyclo[3.2.1]octan-8-yl)-1,3,4-oxadiazol-2-yl)benzoic acid [Example 9]", "values": [{"measurement": "EC50", "result": "50 to 100", "unit": "nM"}]}]}
